# Values quoted from earlier work in PMC7699892, “Repositioned Drugs for Chagas Disease Unveiled via Structure-Based Drug Repositioning” (International Journal of Molecular Sciences, 2020).
# System: T. cruzi
# Design: method as in per drug in column Reference of Table 2; key: ? indicates unknown activity; + indicates indirect evidence of activity; ++ indicates direct evidence of activity
# Conditions: class of literature evidence of trypanocidal activity; ref per drug in Table 2; cited from earlier work
smiles,measurement,value
O=P(O)(O)C(O)(Cc1cccnc1)P(=O)(O)O [Risedronate],Trypan. Activity,++
